Consider one compound from ChEMBL document CHEMBL5390231, “Development of small molecule inhibitors targeting RNA helicase DHX33 as anti-cancer agents” (Bioorg Med Chem Lett, 2023).

The target in experiment [1] is T1, ATP-dependent RNA helicase DHX33 (Mus musculus) (UniProt Q80VY9).
T1 sequence (whole entry): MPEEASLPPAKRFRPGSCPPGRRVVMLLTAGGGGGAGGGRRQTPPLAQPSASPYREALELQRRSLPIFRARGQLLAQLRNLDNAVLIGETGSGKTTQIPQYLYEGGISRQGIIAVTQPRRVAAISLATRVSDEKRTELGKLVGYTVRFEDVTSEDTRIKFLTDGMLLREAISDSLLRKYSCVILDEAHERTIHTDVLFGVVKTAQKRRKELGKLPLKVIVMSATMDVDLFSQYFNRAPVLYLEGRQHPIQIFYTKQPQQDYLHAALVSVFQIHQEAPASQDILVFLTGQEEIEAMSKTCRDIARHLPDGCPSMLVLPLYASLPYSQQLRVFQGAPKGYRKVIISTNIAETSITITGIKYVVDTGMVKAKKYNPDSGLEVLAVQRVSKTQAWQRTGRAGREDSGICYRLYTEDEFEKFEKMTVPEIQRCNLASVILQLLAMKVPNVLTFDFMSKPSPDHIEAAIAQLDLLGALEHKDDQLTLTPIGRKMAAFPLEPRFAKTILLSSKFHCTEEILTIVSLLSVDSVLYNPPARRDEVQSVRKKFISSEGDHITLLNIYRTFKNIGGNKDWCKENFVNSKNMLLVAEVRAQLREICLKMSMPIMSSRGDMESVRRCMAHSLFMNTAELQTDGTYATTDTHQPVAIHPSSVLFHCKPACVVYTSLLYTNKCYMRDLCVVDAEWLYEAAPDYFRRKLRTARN

The target in experiment [2] is T2, ATP-dependent RNA helicase DHX33 (Mus musculus, UniProt Q80VY9).
T2 sequence (Q80VY9 whole entry): T1 sequence (whole entry)
Kind of experiment: Binding affinity to N-terminal/C-terminal 6x His-tagged recombinant wild type mouse DHX33 transformed in Escherichia coli BL21(DE3)pLysS cells assessed as dissociation constant by ITC analysis.

For orientation: Kd means a measure of binding affinity in units of concentration. On to `Cc1oc(-n2c(C)cc(/C=C(\C#N)c3nc4ccccc4[nH]3)c2C)c(C#N)c1C`, for which, in experiment [1], the KA is 21.2 10^4/M. Besides, the Kd in experiment [2] was 4.7 µM.
